Test results: BindingDB's records for doi:10.1016/j.jmb.2008.09.064 (University of Milano, 2008)

The chains behind the UniProt entries cited, without tags or fusion partners. Residues count along the entry.
UniProt P98170, 241-356: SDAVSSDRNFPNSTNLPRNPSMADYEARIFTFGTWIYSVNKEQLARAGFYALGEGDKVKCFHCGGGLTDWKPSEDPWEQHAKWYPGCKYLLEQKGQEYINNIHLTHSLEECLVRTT

Target: E3 ubiquitin-protein ligase XIAP [241-356] (Homo sapiens, UniProt P98170)

- Ki: 0.42 µM
Compound: CC[C@H](N)C(=O)N[C@H]1CCC[C@H]2CC[C@@H](C(=O)NC(c3ccccc3)c3ccccc3)N2C1=O [JMC517169 Compound 12]
